# Source: PubChem BioAssay
# RXFP1 antagonist – antagonists of human relaxin receptor RXFP1 | HEK293-RXFP1, relaxin-stimulated cAMP HTRF, 30 min; hits give low values | activity change, negative = inhibition, % at 57.5 µM | 350,000 compounds, 0.59% hits;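 active = activity change of -60% or lower, but not beyond a set lower limit; inconclusive = change between -60% and -40%, or beyond the set limit; inactive = change above -40%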
# ASM inhibitor – human S-ASM enzyme inhibition; P17405; placental ASM, HMU-PC fluorogenic substrate, 60 min; Potency, µM (series often up to 57.5 µM), usual class: inhibitors; 340,000 compounds, 0.006% hits; AID 504937
#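 Human placenta-derived ASM enzyme was preincubated with compound for 10 minutes at room temperature, then given fluorogenic substrate HMU-PC0 (9 uM final) for 60 minutes at 37 °C; a pH 10 stop preceded fluorescence reading at Ex 386/Em 447 nm.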
# RXFP1 ag – agonists of human relaxin receptor RXFP1. Q9HBX9. HEK293T-RXFP1 cAMP TR-FRET, 30 min; response scale: percent of porcine relaxin response, buffer zero. Potency, µM (series often up to 57.5 µM), hits mostly activators. 370,000 compounds, 0.3% hits. AID 2676; also: nearly all actives have a fitted effect of over 60% in size
#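 HEK293 cells stably expressing RXFP1, treated 30 min at 37C with compounds plus PDE4 inhibitor Ro 20174; cAMP measured by HTRF TR-FRET. Normalized to buffer and 29 nM porcine relaxin; EC50 by Hill fit.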
# miR-21 reporter – raises the signal of a miR-21 reporter | HeLa miR-21 FLuc reporter, luciferase, 48 h | Potency, µM (highest dose often 38.3 µM) | 340,000 tested, under 10 active | AID 2288; active = well fitted rising curve with a large enough effect; inconclusive = small, poorly fitted or top-dose-only effect; inactive = no such curve, though single readings can be large or run the other way;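 note: miR-21 action dims this reporter so a rising signal means less miR-21 action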
#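 HeLa miR-21-FLuc reporter line, endogenous miR-21; 2000 cells/well in DMEM/10% FBS; compound titration up to ~40uM final, 48 h, 37 degree Celsius; luciferase detection reagent, 15 min lysis, CCD luminescence.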
# ERG Ets-DNA blk – blocks human ERG Ets domain binding to DNA. P11308. fluorescence polarization, His-ERG Ets domain / labelled DNA. Potency, µM (top dose mostly 76.9 µM), hits mostly inhibitors. 370,000 compounds, 0.028% hits; active = well fitted inhibition curve with a large enough effect in the polarisation, with a control signal flat; inconclusive = small, poorly fitted or top-dose-only effect, or effect the other way, or a change in a side signal; inactive = no such curve, though single readings can be large or run the other way; the % refers to the polarisation;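 also: polarization taken with two DNA probes labelled with fluorescein and Texas red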
#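 His-tagged ERG Ets domain (1 uM in the protein solution; 300mM KCl, 50mM Tris-HCl, 1mM EDTA, 1mM DTT, pH 7.5) received compound, then a probe mix of 5 nM fluorescein-DNA and 100nM Texas-615-DNA. Fluorescence polarization was read for both dyes.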
# Mito fusion yeast – inhibitors of mitochondrial division or activators of mitochondrial fusion. S. cerevisiae fusion-defective mutant growth rescue, CellTiterGlo 48 h. Potency, µM (titrated, usually from 46.1 µM), most hits filed as activators. 320,000 compounds, 0.23% hits; also: nearly all actives have a fitted effect of over 45% in size
#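 Compounds are tested for their ability to restore growth of mitochondrial fusion-defective yeast strains at non-permissive 37C in YPEG medium over 48 hours. Viability is quantified by luciferase luminescence.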
# Hits are given with their value; . = inactive; ? = inconclusive; / = no result. Sampled rows, rich in hits. Any-hit rate of the full collection: about 0.72%. Unless noted, calls follow the shape of the dose curve; as a rule, active = well fitted curve in the direction sought with a large enough effect; inconclusive = small, poorly fitted or top-dose-only effect, or another doubt; inactive = no such curve, though single readings can be large; an effect the other way counts as inactive or inconclusive.
SMILES,RXFP1 antagonist,ASM inhibitor,RXFP1 ag,miR-21 reporter,ERG Ets-DNA blk,Mito fusion yeast
O=C(CSc1ncnc2c1oc1ccccc12)c1cccs1,.,.,22µM,.,.,.
c1ccc2[nH]c(CSc3ncnc4c3oc3ccccc34)nc2c1,.,.,25µM,.,.,.
CCCCC(=O)N1CCc2cc(OC)c(OC)cc2C1COc1ccc(OC)cc1 (stereo unspecified),/,/,.,.,.,/
CN(C)c1ccc(/C=N/NC(=O)CN2CCCCC2)cc1Br,.,.,.,.,.,.
CCn1c(CSc2ncn[nH]2)nc2cc(C(=O)O)ccc21,.,.,.,.,35µM,.
CCn1c(CSc2nnc(-c3ccncc3)n2C)nc2cc(C(=O)O)ccc21,.,.,.,.,25µM,.
COc1ccc(-n2nc(C(=O)N(C)c3cc(Cl)ccc3OC)c3c4ccccc4n(C)c3c2=O)cc1,.,/,.,.,.,/
O=C(N/N=C/c1c[nH]c2c1ccc1ccccc12)c1ccc([N+](=O)[O-])cc1,-68,.,.,.,.,.
O=[N+]([O-])c1cccc(S(=O)(=O)Nc2ccc(-c3ccc(N4CCCC4)nn3)cc2)c1,-71,.,.,/,.,.
COC(=O)COc1cccc(NS(=O)(=O)c2cccc([N+](=O)[O-])c2)c1,.,.,.,.,.,.
COC(=O)COc1ccc(NS(=O)(=O)c2cccc([N+](=O)[O-])c2)cc1,-66,.,.,.,.,?
O=[N+]([O-])c1cccc(S(=O)(=O)Nc2ccc(-c3ccc(N4CCOCC4)nn3)cc2)c1,.,.,.,/,.,.
O=C(COc1ccc(F)cc1)NC1CC(=O)N(c2ccc3c(c2)OCCO3)C1 (stereo unspecified),/,/,.,.,.,/
Cc1ccc2c(CC(=O)Nc3c(C(=O)c4ccc(F)cc4)oc4ccccc34)coc2c1C,.,/,.,.,.,/
Cc1ccc2[nH]cc(C(c3ccccc3)c3cccs3)c2c1 (stereo unspecified),-72,/,.,.,.,/
CCCOc1ccc2c(c1)CC[C@@H]1[C@@H]2CC[C@]2(C)C(OC)CC[C@@H]12 (stereo partly specified),.,/,/,/,/,/
Clc1ccc(CN2CCc3c([nH]c4ccccc34)C2)cc1Cl,-64,.,.,?,.,.
CSc1ccc(CN2CCc3c([nH]c4ccccc34)C2)cc1,.,.,.,.,.,.
Clc1cccc(CN2CCc3c([nH]c4ccccc34)C2)c1,-64,.,.,.,.,?
CC1(C)OC[C@@H]2O[C@@]3(C(=O)O)OC(C)(C)O[C@H]3[C@@H]2O1,.,/,/,/,/,/
CCc1ccc(Nc2cnn(-c3nc4ccccc4s3)c(=O)c2Cl)cc1,/,?,.,.,.,11µM
CN(C(=O)c1cccc(NC(=O)Cc2cccc(NC(=O)C3CCCN(C(=O)C4CCCCC4)C3)c2)c1)C1CCC1 (stereo unspecified),/,.,/,/,.,/
COc1ccccc1C1CC(c2ccc(Br)cc2)=NN1C(=O)c1cccnc1 (stereo unspecified),.,.,.,.,.,16µM
Cc1ccccc1CS(=O)(=O)c1nnc([C@H](Cc2ccccc2)NC(=O)OC(C)(C)C)o1,-67,.,.,?,.,.
CC(C)(C)OC(=O)N[C@@H](Cc1ccccc1)c1nnc(S(=O)(=O)Cc2ccccc2)o1,/,/,.,?,/,.
SMILES,RXFP1 antagonist,ASM inhibitor,RXFP1 ag,miR-21 reporter,ERG Ets-DNA blk,Mito fusion yeast
COc1cccc(CNCCSc2nnnn2C)c1OCc1ccc(Cl)cc1,/,/,.,.,.,/
CCCCn1c(N2CCC(Cc3ccccc3)CC2)nc2c1c(=O)[nH]c(=O)n2C,-90,.,.,.,.,?
Cc1nnc(SCCn2c(N3CCC(Cc4ccccc4)CC3)nc3c2c(=O)[nH]c(=O)n3C)s1,.,.,.,.,.,.
CCc1ccc2n(-c3ccc(OC)cc3)c([S-])c(C(=O)Nc3cc(C)cc(C)c3)[n+]2c1,.,.,5µM,.,.,.
CC1(OC(=O)C2CCCC2)C(=O)C=C2C=C(c3ccsc3)N(C(CO)CO)C=C2C1=O (stereo unspecified),/,.,.,.,28µM,.
Cc1nc2n(c(=O)c1CCN1CCC(C(=O)c3ccc(F)cc3)CC1)CCS2,.,/,/,/,/,/
Cc1cn2c(=O)cc(COc3cccc(NC(=O)c4ccc(C(C)(C)C)cc4)c3)nc2s1,.,/,.,.,.,/
COc1ccc(/C=C2\Cc3ccccc3C2=O)cc1OC,.,.,.,.,.,.
COc1cc2c(cc1OC)/C(=C/c1ccc(Br)cc1)C(=O)OC2,.,.,.,.,.,16µM
C[n+]1c2n(c3ccccc31)N=C(c1cc(C(C)(C)C)c(O)c(C(C)(C)C)c1)CS2,-85,.,.,?,.,.
COc1cccc(C2=Nn3c(nnc3-c3ccccc3O)SC2)c1,.,.,.,.,.,.
CCN1CCc2c(sc(NC(=S)NC(=O)c3ccc(Cl)cc3)c2C(N)=O)C1,-110,.,.,.,.,.
CCN1CCc2c(sc(NC(=O)c3ccc4ccccc4c3)c2C(N)=O)C1,/,/,.,.,/,.
Cc1ccc(C(=O)NCCc2csc(-c3cccc(F)c3)n2)cc1C,.,/,.,.,.,/
O=c1[nH]c2ccccc2n1CCCN1CCN(C(c2ccccc2)c2ccccc2)CC1,-75,/,.,.,/,.
O=c1[nH]c2ccccc2n1CCCN1CCCCC1,.,.,.,.,.,.
Cc1ccc(CNC(=O)c2ccccc2NC(=O)c2nsc3ccccc23)cc1,.,/,.,.,.,/
COc1cccc(NC(=S)N2CCC(C(=O)c3ccc(F)cc3)CC2)c1,.,.,/,/,.,/
Cc1ccc(C2CC(=O)Nc3c2ccc2ccccc32)cc1[N+](=O)[O-] (stereo unspecified),.,.,.,.,.,22µM
O=C1CC(c2cccc([N+](=O)[O-])c2)c2c(ccc3ccccc23)N1 (stereo unspecified),.,.,.,.,.,.
CN1C2CC(OC(=O)[C@H](CO)c3ccccc3)CC1C1OC12 (stereo partly specified),/,/,/,/,/,.
COc1ccc(C)cc1NC(=O)CN1CCCN(S(=O)(=O)c2ccc(Br)cc2)CC1,.,.,.,.,.,14µM
O=C(CN1CCN(S(=O)(=O)c2ccc(F)cc2)CC1)Nc1ccc(F)cc1F,.,.,.,.,.,35µM
COc1cccc2c1C(=O)c1c(O)c3c(c(O)c1C2=O)CC(O)(C(C)=O)CC3OC1CC(N(C)C)C(O)C(C)O1 (stereo unspecified),.,.,/,/,1µM,/
CCN1CCCC1CN (stereo unspecified),.,/,/,/,/,/
